## Antibody variant affinities, Ab-95 light chain, assay 2

The measurements come from Engelhart et al. 2022 (doi:10.1038/s41597-022-01779-4) through the FLAb antibody collection.

Antigen: PDVDLGDISGINAS, a 14-residue peptide of the SARS-CoV-2 spike HR2 region.

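Phage display of a naive human antibody library on the peptide gave the parent. AAYL52 was designed without a model: most single CDR substitutions and a random sample of double and triple ones. The assay is AlphaSeq: two haploid yeast populations carry antibody and antigen on their surface. After mating in shaken culture at 30 °C for 16 h, diploids were selected and their barcode pairs sequenced. The ratio of observed to expected reads was calibrated, replicate by replicate, on BCL2-family standards whose Kd was known from biolayer interferometry. The assay was run in three technical replicates.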

Parent scFv Ab-95: VH joined to VL by a 15-residue (Gly4Ser)3 linker. Changes lie in the light chain CDRs alone.
VH: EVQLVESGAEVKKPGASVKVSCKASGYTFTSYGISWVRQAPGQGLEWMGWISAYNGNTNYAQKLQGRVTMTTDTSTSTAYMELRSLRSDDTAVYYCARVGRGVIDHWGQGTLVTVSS
VL: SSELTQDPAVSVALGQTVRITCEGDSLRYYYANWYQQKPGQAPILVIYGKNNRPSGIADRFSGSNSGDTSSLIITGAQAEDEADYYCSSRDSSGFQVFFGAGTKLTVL

The parent's light chain CDRs are EGDSLRYYYAN, GKNNRPS, SSRDSSGFQVF; each variant's own CDRs replace them letter for letter. Every variant below is changed at A32 of the VL (sequential numbering). Kd is apparent (estimated from mating counts) and averaged on the log scale over replicates with a signal. Smaller is tighter. An entry "no signal" has no value in the source: the pair was not observed among the diploids in any replicate. This suggests poor binding but is not conclusive.

CDR-L1	CDR-L2	CDR-L3	Kd	replicates with signal	signal with controls
EGDSLRYYYVN	GKNNRPI	SSTDSSGFQVF	1.7 µM	1/3	2/9
EVDSLRQYYLN	GKNNRPS	SSRDSSGFQVF	41 µM	1/3	2/9
EGDSLRYYYGN	GKNNRPS	SSRKSSNFQVF	32 µM	1/3	3/9
EGDELRYYYSN	GKINRPS	SSRDSSGFQVF	5.0 µM	3/3	4/9
EGDSLPYTYFN	GKNNRPS	SSRDSSGFQVF	4.1 µM	3/3	5/9
EGDSKRYYYNN	GKNNRPS	SSRDSSGFQVD	7.4 µM	1/3	2/9
EGDSLRYYYEN	GKNNRPS	SSHDSSGFQFF	5.0 µM	2/3	3/9
EGDSLRYYYPN	IKNNRPS	SSRWSSGFQVF	5.7 µM	2/3	2/9
EGDSLRYYYDN	GKNARPS	SSRDSSGFQNF	660 nM	3/3	5/9
EGDSLRYYYFN	HKNERPS	SSRDSSGFQVF	85 µM	1/3	9/9
EGDSLRYYAMN	GKNNRWS	SSRDSSGFQVF	52 µM	1/3	2/9
EGDSLRYYYVM	GKNNRPS	SGRDSSGFQVF	56 µM	1/3	4/9
EGDSLRYYYTN	GSNNRPS	SSRDSCGFQVF	940 nM	3/3	3/9
EGDSCRYYMVN	GKNNRPS	SSRDSSGFQVF	5.3 µM	2/3	3/9
EGDSLRYYYTN	GKNNRPS	SSRDSSGFQVY	270 nM	3/3	1/9
EGDSLRYYYQN	GKNNRPS	SSRDFIGFQVF	8.3 µM	2/3	0/9
EGDSLRYYYFN	YKNNRPS	SSRDSSGFQVF	no signal	0/3	1/9
EGDSLRAYYCN	GKYNRPS	SSRDSSGFQVF	6.6 µM	3/3	7/9
ESDSLRYYYDN	GKNNRPS	SSRDSSGFQFF	32 µM	1/3	3/9
EGDSLRYYYPN	GKSNRPS	SSADSSGFQVF	2.2 µM	1/3	1/9
EGDSLRYYYHN	RKNNRPS	SSRDSSGFQVD	2.8 µM	1/3	0/9
EGCSLRYYYGN	GKNNRPS	NSRDSSGFQVF	3.2 µM	2/3	4/9
EGDSLRYYYWN	GKNNRKS	SSRDSYGFQVF	290 µM	1/3	3/9
EGDSLRYYNMN	GKNNRIS	SSRDSSGFQVF	3.6 µM	1/3	0/9
EGDSLRYLYIN	GKNNRPS	SSRDTSGFQVF	2.7 µM	1/3	2/9
EGDSLRYYYMN	GKNSRPS	SSRDSSGFQVC	11 µM	2/3	5/9
EGVSLRYCYQN	GKNNRPS	SSRDSSGFQVF	5.8 µM	1/3	0/9
EGDSLHIYYYN	GKNNRPS	SSRDSSGFQVF	no signal	0/3	2/9
EGDSLRYYYEN	GKNNRPS	SKRDSRGFQVF	no signal	0/3	4/9
EGDSLRYYYSN	GKNNRPS	SSRDSSGFQVF	210 nM	3/3	2/9
EADSYRYYYWN	GKNNRPS	SSRDSSGFQVF	22 µM	3/3	3/9
EGDSLRYYYLN	GKKNRPS	SSRDSSHFQVF	no signal	0/3	0/9
EGDSLRYYYGN	GPCNRPS	SSRDSSGFQVF	5.5 µM	2/3	4/9
EGDSLRYYYEN	GKNNHPS	SSRDSSGFQVF	4.3 µM	1/3	3/9
EGDSLRYYYRN	GKNNRPS	SSRDSKGFQVH	4.5 µM	2/3	1/9
ESDSLRYYYMN	GKNNRPS	SKRDSSGFQVF	no signal	0/3	2/9
EGDSLRYYYRN	GKNNRPS	SSRDSSGFFMF	10 µM	2/3	3/9
EGDSLRYFYIN	GKNNRPS	SSRDHSGFQVF	15 µM	2/3	4/9
EGDSLRYYYNN	GYNNRPS	SSRDLSGFQVF	no signal	0/3	0/9
EGDSLRYYYTN	GGNNRPS	SSRDSSGVQVF	12 µM	3/3	0/9
EGDSLRFYYTN	GKNNRPS	SSRDSSGFQVF	530 nM	3/3	4/9
EGDSLRYKYCN	GKNNRPE	SSRDSSGFQVF	20 nM	3/3	3/9
EGCSLRYYYLN	GKNNRPS	SSRDSSRFQVF	4.5 µM	2/3	4/9
EGDSLRYYYKN	GKNNRPS	SSRDSSGFQTG	2.8 µM	3/3	0/9
EGDSLRYYYIN	GKNNRNS	SSRDSSGFQVQ	3.0 µM	2/3	2/9
EGDSLRYVYEN	GKQNRPS	SSRDSSGFQVF	450 nM	3/3	3/9
EGDSLKYYYPN	GKNNRPS	SSRDSSGFQVF	24 nM	3/3	4/9
EGDSLRYYYTN	GKNNRPT	SSRISSGFQVF	1.5 µM	3/3	6/9
EGDSLVYYYEN	GKNNRPS	ISRDSSGFQVF	no signal	0/3	0/9
EGDSLRYYYHN	LKNNMPS	SSRDSSGFQVF	110 µM	1/3	1/9
EGDSLRYYYVN	GKNNRPI	SSRDSSGFEVF	1.3 µM	2/3	3/9
EGDSLRYYYYN	GKNNRPL	SSRDSDGFQVF	430 nM	3/3	6/9
EGDSLRYYYNN	GKNNRVS	SSRDSSGFQAF	1.8 µM	1/3	4/9
EGDSLRYYYIC	GKNNRPS	SWRDSSGFQVF	12 µM	3/3	7/9
EGDSLRYYYMG	GKNNRPS	SSNDSSGFQVF	4.9 µM	3/3	4/9
EGDSLRYYYTN	QKNNRPS	SSRDSSGCQVF	97 µM	2/3	2/9
EGDILRYYYWN	GKNNRPS	SSRDSSGFQVF	32 µM	1/3	2/9
EGDSLRYYYEG	GKNNRPS	SSRDSSGFYVF	1.8 µM	2/3	6/9
EGDSERYYYDN	TKNNRPS	SSRDSSGFQVF	no signal	0/3	1/9
EGDSLRYYYQN	DKNNRPS	SSRDSSGFQVF	no signal	0/3	0/9
EGDSLRYMQEN	GKNNRPS	SSRDSSGFQVF	3.3 µM	3/3	1/9
EGDSKRYYYSL	GKNNRPS	SSRDSSGFQVF	9.4 µM	1/3	1/9
EGDSLYYYYCN	GKNNRPS	SSRDSSGGQVF	2.9 µM	3/3	6/9

A selection of 7 entries from above:

CDR-L1	CDR-L2	CDR-L3	Kd	replicates with signal	signal with controls
EVDSLRQYYLN	GKNNRPS	SSRDSSGFQVF	41 µM	1/3	2/9
EGDSLRYYYGN	GPCNRPS	SSRDSSGFQVF	5.5 µM	2/3	4/9
EGDSLRYYYFN	YKNNRPS	SSRDSSGFQVF	no signal	0/3	1/9
EGDSLRYYYHN	LKNNMPS	SSRDSSGFQVF	110 µM	1/3	1/9
EGDSLRFYYTN	GKNNRPS	SSRDSSGFQVF	530 nM	3/3	4/9
EGDSLRYYYTN	GGNNRPS	SSRDSSGVQVF	12 µM	3/3	0/9
EGDSLRYYYVN	GKNNRPI	SSTDSSGFQVF	1.7 µM	1/3	2/9

Parent in this assay: reference entry 200 nM, copy in this library 180 nM. As a blank, each scFv also met three strains without target: over library AAYL52, 28% of these pairings were detected, typically at 8.2 µM and seldom below 800 nM. Also given: how often the same scFv was detected with the empty control strains.